Assay in all cases: ELISA; CAP37, neutrophil elastase, cathepsin G or Aβ1-42 (0.5 μg/well) or BSA (1000 μg/well) coated on Maxisorp plates in PBS pH 7.4; RAGE Fc chimera 0–3.3 nM in PBST with 0.1% BSA, 37°C, 70 min; bound RAGE detected with goat anti-RAGE; BSA subtracted as background for KD
Holding throughout (conditions): both partners purified
In general terms: An ELISA detects its analyte on a solid surface through an enzyme-linked reagent.

Amino acid sequences for entries named in this document (tags omitted). Residues count along the entry.
UniProt P08246, 30-267: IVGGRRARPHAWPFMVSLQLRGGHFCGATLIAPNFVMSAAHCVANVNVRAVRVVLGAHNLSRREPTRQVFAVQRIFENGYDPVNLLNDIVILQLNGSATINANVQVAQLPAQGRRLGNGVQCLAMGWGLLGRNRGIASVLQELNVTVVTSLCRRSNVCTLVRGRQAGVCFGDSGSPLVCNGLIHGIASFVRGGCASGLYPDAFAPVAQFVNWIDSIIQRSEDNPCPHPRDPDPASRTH

Assay [1] deals with T1, cationic antimicrobial protein of 37kDa (CAP37) (human, UniProt P20160 27-251).
T1 construct: cationic antimicrobial protein of 37kDa (CAP37, encoded by AZU1), human, purified from neutrophils, >95% pure by SDS-PAGE; also called AZU1; source: purified from human neutrophils; bought: Athens Research & Technology
T1 sequence (looked up): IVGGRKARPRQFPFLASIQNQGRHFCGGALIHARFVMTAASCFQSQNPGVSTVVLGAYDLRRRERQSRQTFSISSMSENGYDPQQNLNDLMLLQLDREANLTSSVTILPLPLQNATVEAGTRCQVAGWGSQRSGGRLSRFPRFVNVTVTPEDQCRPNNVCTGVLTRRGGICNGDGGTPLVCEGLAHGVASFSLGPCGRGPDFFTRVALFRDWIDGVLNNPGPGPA

A further assay deals with neutrophil elastase (human, UniProt P08246, native N-glycosylated, disulfide-bonded active enzyme from human neutrophils. Limits are not printed: the signal and activation dipeptide are removed (starts at 30), and the C-terminal propeptide is t).
The target in another assay is T2, cathepsin G (human, UniProt P08311 21-244).
T2 construct: cathepsin G (CTSG), human, purified from neutrophils, >95% pure by SDS-PAGE; also called CG; CTSG; source: purified from human neutrophils; bought: Athens Research & Technology
T2 sequence (looked up): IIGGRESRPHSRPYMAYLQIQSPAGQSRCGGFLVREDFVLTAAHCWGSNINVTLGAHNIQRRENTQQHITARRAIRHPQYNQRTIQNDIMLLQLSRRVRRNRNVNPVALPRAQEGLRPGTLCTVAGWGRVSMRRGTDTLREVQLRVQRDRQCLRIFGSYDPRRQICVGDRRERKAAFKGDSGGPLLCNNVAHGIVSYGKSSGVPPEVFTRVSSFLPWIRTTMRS

B1: Recombinant human RAGE Fc chimera (Fc fusion, UniProt Q15109 23-342, looked up)
chain: AQNITARIGEPLVLKCKGAPKKPPQRLEWKLNTGRTEAWKVLSPQGGGPWDSVARVLPNGSLFLPAVGIQDEGIFRCQAMNRNGKETKSNYRVRVYQIPGKPEIVDSASELTAGVPNKVGTCVSEGSYPAGTLSWHLDGKPLVPNEKGVSVKEQTRRHPETGLFTLQSELMVTPARGGDPRPTFSCSFSPGLPRHRALRTAPIQPRVWEPVPLEEVQLVVEPEGGAVAPGGTVTLTCEVPAQPSPQIHWMKDGVPLPLPPSPVLILPEIGPQDQGTYSCVATHSSHGPQESRAVSISIIEPGEEGPTAGSVGGSGLGTLA
notes: receptor for advanced glycation end products (RAGE), human, recombinant, fused to Fc; No catalogue number printed; also called receptor for advanced glycation end products; AGER; source: bought: R&D Systems
Regarding B1, in assay [1], the “Log binding at 0.21 nM RAGE” value is -0.174 log OD, the “Log binding at 0.42 nM RAGE” value is -0.012 log OD, the “Log binding at 0.83 nM RAGE” value was 0.112 log OD and the “Log binding at 1.67 nM RAGE” value is 0.228 log OD. For the same molecule, the “Log binding at 3.33 nM RAGE” value in assay [1] came to 0.325 log OD. Moreover, in the assay with neutrophil elastase, the “Log binding at 1.67 nM RAGE” value is -0.274 log OD and the “Log binding at 3.33 nM RAGE” value is -0.121 log OD. For the same molecule, in the assay with cathepsin G, the “Log binding at 0.21 nM RAGE” value was -0.264 log OD, the “Log binding at 0.42 nM RAGE” value was -0.078 log OD, the “Log binding at 0.83 nM RAGE” value came out at 0.101 log OD and the “Log binding at 1.67 nM RAGE” value is 0.166 log OD. Further, in the assay with cathepsin G, the “Log binding at 3.33 nM RAGE” value is 0.192 log OD.

For the origin of these results see PMC5038948 (PLoS ONE, 2016).
